From paper PMC3335822 (PLoS ONE, 2012)

Molecular target: T1, Eya3(ED) (Mus musculus, UniProt P97480)
T1 construct: The catalytic domain (ED) of mouse Eyes Absent 3 (Eya3(223–510)) was purified; made in house
T1 sequence (P97480 223-510): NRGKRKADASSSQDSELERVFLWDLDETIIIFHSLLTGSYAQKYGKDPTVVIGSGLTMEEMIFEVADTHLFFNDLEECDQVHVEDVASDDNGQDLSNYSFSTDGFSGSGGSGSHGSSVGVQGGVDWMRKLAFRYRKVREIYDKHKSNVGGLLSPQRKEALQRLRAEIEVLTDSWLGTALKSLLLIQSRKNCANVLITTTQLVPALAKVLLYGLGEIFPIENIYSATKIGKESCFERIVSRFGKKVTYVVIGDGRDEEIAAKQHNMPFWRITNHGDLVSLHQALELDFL
Test: pNPP hydrolysis by the catalytic domain of Eya3
Assay type: biochemical
Settings: substrate pNPP 3.4 mM, pH 6, 30°C, 30 minutes
Description: The catalytic domain (ED) of mouse Eyes Absent 3 (Eya3(223–510)) was purified as described before. Human Eyes Absent 3 isoform 2 (representing the major species identified in human cell lines by mass spectrometry and residues 127–573 of NM_001990, isoform 1) was sub-cloned into pDEST565 to express a poly-histidine- Glutathione-S-transferase (His-GST) tagged fusion protein with a TVMV protease site. The protein was purified by glutathione-S-transferase affinity chromatography followed by TVMV cleavage, Ni-NTA chromatography, and finally size exclusion chromatography.
The NCI Diversity Set II was obtained from the NCI in 96-well trays from the NIH Molecular Libraries Program and stored as 10 mM stocks in DMSO. An initial manual screen was conducted using the previously described p-nitrophenylphosphate assay and mouse Eya3(223–510) in a reaction mixture containing 20 mM MES pH 6, 2 mM MgCl2, 125 μM inhibitor, 3.4 mM para-nitrophenol phosphate (pNPP) and 0.01 μg/µL enzyme.
Compounds were dissolved in DMSO and diluted as needed. […] Reactions were incubated at 30°C for 30 minutes and quenched with 100 mM EDTA pH 10. IC50 values were then calculated directly from regression curves using PRISM. All reported values are the mean of two independent experiments.

`CCCCc1oc2ccccc2c1C(=O)c1ccc(O)cc1` [Compound 1b] was tested, and the IC50 was 10.1 µM.
